Values of other authors as cited in US20260015582A1, “METHODS OF T CELL DIFFERENTIATION AND COMPOSITIONS THEREOF” (THE CHILDREN'S MEDICAL CENTER CORPORATION, priority 2022, published 2026).

By UniProt entry, the sequences of proteins in these tests, tags left out. Where a name states a change or a piece, a line headed by the entry shows the natural chain unless it says otherwise.
UniProt P26358: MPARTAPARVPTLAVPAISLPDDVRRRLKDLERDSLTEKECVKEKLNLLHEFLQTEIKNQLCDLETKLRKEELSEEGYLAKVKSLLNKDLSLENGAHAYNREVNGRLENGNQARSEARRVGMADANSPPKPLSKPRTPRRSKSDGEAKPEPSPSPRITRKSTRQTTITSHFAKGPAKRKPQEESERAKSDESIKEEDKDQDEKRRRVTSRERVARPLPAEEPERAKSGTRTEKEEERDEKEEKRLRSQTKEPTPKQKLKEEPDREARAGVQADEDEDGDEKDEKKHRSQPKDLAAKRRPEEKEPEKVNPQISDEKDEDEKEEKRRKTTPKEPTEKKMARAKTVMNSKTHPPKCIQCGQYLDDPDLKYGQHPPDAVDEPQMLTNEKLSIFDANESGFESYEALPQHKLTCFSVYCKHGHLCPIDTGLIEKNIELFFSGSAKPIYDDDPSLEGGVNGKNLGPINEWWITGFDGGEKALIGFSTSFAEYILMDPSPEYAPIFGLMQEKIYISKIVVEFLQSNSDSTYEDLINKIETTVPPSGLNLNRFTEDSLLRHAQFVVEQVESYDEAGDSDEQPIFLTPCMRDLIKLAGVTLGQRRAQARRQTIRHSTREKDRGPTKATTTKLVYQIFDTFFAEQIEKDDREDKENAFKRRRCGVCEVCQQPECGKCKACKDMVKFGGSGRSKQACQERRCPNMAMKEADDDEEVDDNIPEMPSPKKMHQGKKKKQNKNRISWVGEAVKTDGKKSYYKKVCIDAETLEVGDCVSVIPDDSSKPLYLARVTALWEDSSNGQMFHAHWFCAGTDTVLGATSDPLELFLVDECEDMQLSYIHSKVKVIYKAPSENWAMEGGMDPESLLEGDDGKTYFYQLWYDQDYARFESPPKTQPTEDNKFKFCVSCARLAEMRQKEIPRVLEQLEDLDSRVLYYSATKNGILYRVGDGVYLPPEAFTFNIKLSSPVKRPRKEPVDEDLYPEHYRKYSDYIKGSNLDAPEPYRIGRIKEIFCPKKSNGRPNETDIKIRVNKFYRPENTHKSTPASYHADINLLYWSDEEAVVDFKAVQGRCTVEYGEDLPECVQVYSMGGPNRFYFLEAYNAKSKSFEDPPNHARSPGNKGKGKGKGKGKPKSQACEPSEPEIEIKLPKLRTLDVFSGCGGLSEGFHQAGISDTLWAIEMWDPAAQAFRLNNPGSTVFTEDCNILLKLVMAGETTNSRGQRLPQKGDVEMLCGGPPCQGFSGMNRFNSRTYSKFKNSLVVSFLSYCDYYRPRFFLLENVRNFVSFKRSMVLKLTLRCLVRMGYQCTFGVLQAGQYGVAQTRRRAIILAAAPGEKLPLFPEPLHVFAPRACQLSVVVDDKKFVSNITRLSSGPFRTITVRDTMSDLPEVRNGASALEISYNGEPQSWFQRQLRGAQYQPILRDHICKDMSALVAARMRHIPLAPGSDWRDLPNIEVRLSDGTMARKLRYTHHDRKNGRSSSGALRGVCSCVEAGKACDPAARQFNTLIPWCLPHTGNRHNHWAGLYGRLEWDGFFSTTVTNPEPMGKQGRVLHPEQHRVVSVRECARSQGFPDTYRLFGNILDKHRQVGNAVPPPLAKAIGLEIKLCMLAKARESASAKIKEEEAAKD
UniProt O43463: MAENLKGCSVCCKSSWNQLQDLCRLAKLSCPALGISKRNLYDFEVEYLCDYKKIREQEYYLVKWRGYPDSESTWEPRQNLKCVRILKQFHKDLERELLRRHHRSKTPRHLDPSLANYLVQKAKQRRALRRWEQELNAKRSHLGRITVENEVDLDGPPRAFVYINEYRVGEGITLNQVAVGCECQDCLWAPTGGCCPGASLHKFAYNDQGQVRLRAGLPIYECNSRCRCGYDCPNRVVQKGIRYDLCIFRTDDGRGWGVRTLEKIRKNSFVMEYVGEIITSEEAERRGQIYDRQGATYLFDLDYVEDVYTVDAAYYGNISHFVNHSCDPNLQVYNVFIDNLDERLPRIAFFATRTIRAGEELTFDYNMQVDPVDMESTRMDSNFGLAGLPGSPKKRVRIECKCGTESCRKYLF

Assays:
NDMT1 = NDMT1 (Homo sapiens, UniProt P26358); details: cited from earlier work
SU39H1 = SU39H1 (Homo sapiens, UniProt O43463); details: cited from earlier work

Q: Which “concentration up to which selective for G9a and PRC2 over NDMT1” value (NDMT1) does the source give for `O=C(O)c1ccc2c(c1)nc(NC(=O)c1ccccc1)n2CCCc1ccccc1` [BRD9539] here?
A: ≤ 40 µM

Q: What about the “concentration up to which selective for G9a and PRC2 over SU39H1” value (SU39H1) of the same compound?
A: ≤ 40 µM
